Only a part is listed here, and it is no random draw. Some structures show a salt or complex split into parts, the way the source records it. The source made the active and inactive calls.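 How the source made its calls: active means inhibition above the mean of all tested compounds plus 3 SD, set per screening campaign (cut at about 17% in these data); inactive means the rest.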
Tested on: cathepsin L1 (Fasciola hepatica)
Assay: CTSL1 protease inhibition, fluke enzyme – biochemical, QFRET, fluorogenic peptide substrate, counter-screen for PFM18AAP inhibitor project, primary screen (AID 1906);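 further: 0% = plate median of test compound wells and 100% = 1 µM Z-Phe-Ala-diazomethylketone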
Settings: recombinant F. hepatica cathepsin L1, Z-Leu-Arg-MCA fluorescence; at 5.96 µM; hits give high values

| SMILES | inhibition |
| --- | --- |
| CP(=O)(Nc1ccc(Cl)cc1)Oc1ccc(F)cc1 (stereo not drawn) | inactive: -2.44% |
| CC(C)(C)c1ccc(OP(C)(=O)O)cc1 | inactive: 0.01% |
| COc1ccccc1OP(C)(=O)Nc1ccccc1Br (stereo not drawn) | inactive: 0.1% |
| CN(C)C(=O)c1c([N+](=O)[O-])cc([N+](=O)[O-])cc1[N+](=O)[O-] | inactive: 8.31% |
| CCN(CC)CC(O)COC(=O)C(O)(c1ccccc1)C1CCCCC1 (stereo not drawn) | inactive: -5.84% |
| COc1ccc(OP(C)(=O)Nc2ccc(Br)cc2)cc1 (stereo not drawn) | inactive: 1.21% |
| CP(=O)(Oc1ccccc1)N1CCOC1=O (stereo not drawn) | inactive: -2.06% |
| CCc1ccc(OP(C)(=O)Nc2cccnc2)cc1 (stereo not drawn) | inactive: -0.88% |
| COc1ccccc1OP(C)(=O)Nc1c(C)n(C)n(-c2ccccc2)c1=O (stereo not drawn) | inactive: -2.49% |
| O=C(OCCCN1CCCC1)C(O)(c1ccccc1)C1CCCCC1 (stereo not drawn) | inactive: -4.88% |
| Nc1ccc2c(ccc3cccnc32)n1.O=[N+]([O-])c1cc([N+](=O)[O-])c(O)c([N+](=O)[O-])c1 | inactive: 4.75% |
| CP(=O)(OC12CC3CC(CC(C3)C1)C2)OC12CC3CC(CC(C3)C1)C2 | inactive: -0.36% |
| CCOC(=O)c1ccc(NP(C)(=O)Oc2ccc(Cl)cc2)cc1 (stereo not drawn) | inactive: 1.88% |
| Cc1nc2ccc3ccccc3c2o1.O=[N+]([O-])c1cc([N+](=O)[O-])c(O)c([N+](=O)[O-])c1 | inactive: 3.48% |
| CP(=O)(OCCOc1ccccc1)OCCOc1ccccc1 | inactive: -4.77% |
| CP(=O)(Nc1ccc(Cl)cc1Cl)Oc1ccccc1 (stereo not drawn) | inactive: -5.09% |
| Cc1cc(C)cc(OP(C)(=O)Nc2cccc(C(F)(F)F)c2)c1 (stereo not drawn) | inactive: 2.9% |
| COc1ccc(OP(C)(=O)Nc2ccccc2Br)cc1 (stereo not drawn) | inactive: -3.19% |
| COc1ccccc1OP(C)(=O)Nc1ccc(C)c(C)c1 (stereo not drawn) | inactive: 2.39% |
| O=[N+]([O-])c1cc([N+](=O)[O-])c(Nc2ccccn2)c([N+](=O)[O-])c1 | inactive: 8.59% |
| Cc1c(NP(C)(=O)Oc2ccc(C(C)C)cc2)c(=O)n(-c2ccccc2)n1C (stereo not drawn) | inactive: 0.34% |
| CCc1ccc(OP(C)(=O)O)cc1 | inactive: 0.64% |

| SMILES | inhibition |
| --- | --- |
| CP(=O)(Nc1ccccn1)Oc1ccccc1 (stereo not drawn) | inactive: -2.46% |
| COc1ccccc1OP(C)(=O)Nc1ccc(C)cc1C (stereo not drawn) | inactive: 1.6% |
| COc1ccccc1OP(C)(=O)Nc1ccc(Br)cc1 (stereo not drawn) | inactive: -1.37% |
| CN(C)CCOC(=O)C(O)(c1ccccc1)C1CCCC1 (stereo not drawn) | inactive: 1.56% |
| COc1ccc(OP(C)(=O)Nc2ccccn2)cc1 (stereo not drawn) | inactive: -2.74% |
| O=C(OCCN1CCN(CCOCc2ccccc2)CC1)C(O)(c1ccccc1)c1ccccc1 | inactive: 1.23% |
| O=C(OC1CN2CCC1CC2)c1ccc([N+](=O)[O-])cc1 (stereo not drawn) | inactive: 6.49% |
| COc1ccc2c(c1O)-c1c(O)c(OC)cc3c1[C@H](C2)[N+](C)(C)CC3.O=[N+]([O-])c1cc([N+](=O)[O-])c([O-])c([N+](=O)[O-])c1[O-] | inactive: 0.81% |
| CC(C)c1ccc(OP(C)(=O)Nc2ccc(SC(F)(F)F)cc2)cc1 (stereo not drawn) | inactive: 2% |
| CP(=O)(Nc1ccccc1F)Oc1ccccc1 (stereo not drawn) | inactive: -2.69% |
| CCN(CC)CCCOC(=O)C(O)(c1ccccc1)C1CCCCC1 (stereo not drawn) | inactive: -1.03% |
| O=[N+]([O-])c1cc([N+](=O)[O-])c(OC2CCCCC2O)c([N+](=O)[O-])c1 (stereo not drawn) | inactive: -0.78% |
| CCCCCOc1ccc(NP(C)(=O)Oc2ccc(Cl)cc2Cl)cc1 (stereo not drawn) | inactive: -1.46% |
| CP(=O)(Nc1ccccc1)Oc1ccc(F)cc1 (stereo not drawn) | inactive: -1.03% |
| COc1ccc(OP(C)(=O)Nc2ccc(SC(F)(F)F)cc2)cc1 (stereo not drawn) | inactive: 6.19% |
| CCOC(=O)c1ccc(NP(C)(=O)Oc2ccc(F)cc2)cc1 (stereo not drawn) | inactive: -0.5% |
| O=[N+]([O-])c1cc([N+](=O)[O-])c(NCC2CCS(=O)(=O)C2)c([N+](=O)[O-])c1 (stereo not drawn) | inactive: 3.31% |
| COc1ccc(OP(C)(=O)Nc2cccc(Br)c2)cc1 (stereo not drawn) | inactive: -3.64% |
| COc1ccc(NP(C)(=O)Oc2ccccc2OC)cc1 (stereo not drawn) | inactive: -2.59% |
| CN(C)CCOC(=O)C(O)(c1ccccc1)C1CCCCC1 (stereo not drawn) | inactive: -1.54% |
| CP(=O)(Nc1ccc2c(c1)OCCO2)Oc1ccccc1 (stereo not drawn) | inactive: -4.23% |
| Cc1ccccc1NP(C)(=O)Nc1ccccc1C | inactive: -2.8% |

| SMILES | inhibition |
| --- | --- |
| CP(=O)(Nc1ccc(SC(F)(F)F)cc1)Oc1ccc(F)cc1 (stereo not drawn) | inactive: 3.1% |
| CCOP(C)(=S)SCC(=O)NC(C)(CC)C(=O)O (stereo not drawn) | inactive: 2.32% |
| O=[N+]([O-])c1cc([N+](=O)[O-])c(-c2cnn(-c3ccccc3)c2)c([N+](=O)[O-])c1 | inactive: -1.73% |
| Cc1nc2ccc3ccccc3c2s1.O=[N+]([O-])c1cc([N+](=O)[O-])c(O)c([N+](=O)[O-])c1 | inactive: 2.03% |
| O=[N+]([O-])c1cc([N+](=O)[O-])c(-n2nnc3ccccc32)c([N+](=O)[O-])c1 | inactive: 4.21% |
| COc1ccccc1OP(C)(=O)Nc1c(C)cccc1C (stereo not drawn) | inactive: -2.9% |
| CN1CCCCC1COC(=O)C1(O)c2ccccc2CCc2ccccc21 (stereo not drawn) | inactive: -1.27% |
| CP(=O)(Nc1ccc(SC(F)(F)F)cc1)Oc1ccccc1 (stereo not drawn) | inactive: 0.49% |
| CCCOc1ccc(NP(C)(=O)Oc2ccc(Cl)cc2)cc1 (stereo not drawn) | inactive: 1.35% |
| O=[N+]([O-])c1cc([N+](=O)[O-])c(Nc2nnnn2CCO)c([N+](=O)[O-])c1 | inactive: -0.07% |
| CC1=C2N=C(C=C3N=C(C(C)=C4[N-][C@@](C)([C@@H]5N=C1[C@](C)(CCC(=O)NC[C@@H](C)OP(=O)([O-])O[C@H]1[C@@H](O)[C@@H](n6cnc7cc(C)c(C)cc76)O[C@@H]1CO)[C@H]5CC(N)=O)[C@@](C)(CC(N)=O)[C@@H]4CCC(N)=O)[C@@](C)(CC(N)=O)[C@@H]3CCC(N)=O)C(C)(C)[C@@H]2CCC(N)=O.[C-]#N.[Co+3] | active: 28.7% |
| CCOC(=O)C(CC)C1=NC(C)(C)Cc2ccccc21.O=[N+]([O-])c1cc([N+](=O)[O-])c(O)c([N+](=O)[O-])c1 (stereo not drawn) | inactive: 1.63% |
| CC1=NCCc2c1[nH]c1ccccc21.O=[N+]([O-])c1cc([N+](=O)[O-])c(O)c([N+](=O)[O-])c1 | inactive: 1.16% |
| O=C(O)c1cccc(Nc2c([N+](=O)[O-])cc([N+](=O)[O-])cc2[N+](=O)[O-])c1 | inactive: 3.76% |
| CP(=O)(Nc1cccc(Br)c1)Oc1ccccc1 (stereo not drawn) | inactive: 5.6% |
| Cc1cc(C)cc(OP(C)(=O)Nc2ccccn2)c1 (stereo not drawn) | inactive: -2.98% |
| Cc1ccc(C)c(NP(C)(=O)Oc2ccccc2)c1 (stereo not drawn) | inactive: -2.81% |
| COc1ccccc1OP(C)(=O)Nc1cccc(Br)c1 (stereo not drawn) | inactive: -2.16% |
| Cc1cc(C)cc(OP(C)(=O)Nc2ccc(C)cc2C)c1 (stereo not drawn) | inactive: 2.89% |
| CCOC(=O)c1ccc(NP(C)(=O)Oc2cc(C)cc(C)c2)cc1 (stereo not drawn) | inactive: 0.16% |
| CCN(CC)CCCOC(=O)C(O)(c1ccccc1)c1ccccc1 | inactive: -3.12% |
| CCOC(=O)c1ccc(NP(C)(=O)Oc2ccccc2)cc1 (stereo not drawn) | inactive: -3.13% |

| SMILES | inhibition |
| --- | --- |
| COc1ccccc1OP(C)(=O)Nc1ccc(C)cc1 (stereo not drawn) | inactive: 0.34% |
| Cc1ccc(NP(C)(=O)Oc2ccccc2)c(C)c1 (stereo not drawn) | inactive: 3.09% |
| COc1ccccc1OP(C)(=O)Nc1cc(Cl)ccc1C (stereo not drawn) | inactive: -0.86% |
| COc1ccc(OP(C)(=O)Nc2cccc(F)c2)cc1 (stereo not drawn) | inactive: -4.64% |
| Cc1cc(C)cc(OP(C)(N)=O)c1 (stereo not drawn) | inactive: -5.69% |
| O=[N+]([O-])c1cc([N+](=O)[O-])c(Nc2cccnc2)c([N+](=O)[O-])c1 | inactive: 1.38% |
| CC(C)(C)c1ccc(OP(C)(=O)Nc2ccc(SC(F)(F)F)cc2)cc1 (stereo not drawn) | inactive: 2.04% |
| Cc1cccc(C)c1OP(C)(N)=O (stereo not drawn) | inactive: -4.06% |
| O=[N+]([O-])c1ccc2c(c1)C=Nc1ccccc1O2 | inactive: 2.96% |
| CP(=S)(Nn1cnnc1)Oc1ccccc1 (stereo not drawn) | inactive: -2.09% |
| COc1ccccc1OP(C)(=O)Nc1ccccc1 (stereo not drawn) | inactive: 4.7% |
| CP(=O)(Nc1ccccc1Br)Oc1ccccc1 (stereo not drawn) | inactive: -2.69% |
| CCOP(C)(=S)SCC(=O)NC(C)C(=O)O (stereo not drawn) | inactive: -0.85% |
| CCOC(=O)c1ccc(NP(C)(=O)Oc2ccc(OC)cc2)cc1 (stereo not drawn) | inactive: 1.55% |
| O=[N+]([O-])c1cc([N+](=O)[O-])c(O)c([N+](=O)[O-])c1.c1ccc(Oc2ccncc2)cc1 | inactive: 3.56% |
| CP(=O)(Nc1ccccn1)Oc1ccc(Cl)cc1 (stereo not drawn) | inactive: 5.15% |
| Cc1cccc(C)c1OP(C)(=O)Nc1ccc(SC(F)(F)F)cc1 (stereo not drawn) | inactive: -4.95% |
| CP(=O)(Nc1ccc(SC(F)(F)F)cc1)Oc1ccc(Cl)cc1 (stereo not drawn) | inactive: 1.93% |
| CP(=O)(Oc1ccccc1)OC(c1ccccc1)C(F)(F)F (stereo not drawn) | inactive: -1.05% |
| CCc1ccc(OP(C)(=O)N2CCN(c3ccc([N+](=O)[O-])cc3)CC2)cc1 (stereo not drawn) | inactive: 6.54% |
| CP(=O)(NC(=O)Nc1ccccc1)Oc1ccccc1 (stereo not drawn) | inactive: -1.25% |
| Cc1cc(C)cc(OP(C)(=O)Nc2ccc(SC(F)(F)F)cc2)c1 (stereo not drawn) | inactive: 4.14% |
